Measured values from PMC5454376 (Nature Communications, 2017).

Molecular target: T1, Human His-Gαi3 WT (human, UniProt P08754 1-354)
T1 construct: Gαi3, human, UniProt P08754, full length; same plasmid as for the NMR studies; also called His-tagged Gαi3; tagged protein; source: E. coli, pET24d(+), purified as uncleaved His-tagged protein (HisPur Cobalt Resin); not shown: His tag, N-terminal, kept
Test: fluorescence polarisation; fluorescein-labelled peptide 0.025 μM, G protein 0–8 μM; room temperature; 50 mM Tris-HCl pH 7.4, 100 mM NaCl, 0.4% NP-40, 10 mM MgCl2, 5 mM EDTA, 2 mM DTT, 30 μM GDP; one site binding hyperbola
Conditions: both partners purified

B1: Fluorescein-labelled DAPLE peptide (residues 1,662–1,695) (peptide)
peptide: SASPSSEMVTLEEFLEESNRSSPTHDTPSCRDDL
modifications: 5,6-carboxyfluorescein coupled to the resin-bound peptide after chain elongation
notes: DAPLE, human, residues 1,662–1,695; also called GBA motif of DAPLE; DAPLE-derived peptide; source: synthetic peptide
- binding result: binds
